Experimental findings from patent US20210139477A1, “ALK5 INHIBITORS, CONJUGATES, AND USES THEREOF” (Silverback Therapeutics, Inc., priority 2019, published 2021) are described below.

Sequences of proteins named here, by UniProt entry; tags and fusion partners are left off. Residues count along the entry.
UniProt P36897, 34-503 limits assumed: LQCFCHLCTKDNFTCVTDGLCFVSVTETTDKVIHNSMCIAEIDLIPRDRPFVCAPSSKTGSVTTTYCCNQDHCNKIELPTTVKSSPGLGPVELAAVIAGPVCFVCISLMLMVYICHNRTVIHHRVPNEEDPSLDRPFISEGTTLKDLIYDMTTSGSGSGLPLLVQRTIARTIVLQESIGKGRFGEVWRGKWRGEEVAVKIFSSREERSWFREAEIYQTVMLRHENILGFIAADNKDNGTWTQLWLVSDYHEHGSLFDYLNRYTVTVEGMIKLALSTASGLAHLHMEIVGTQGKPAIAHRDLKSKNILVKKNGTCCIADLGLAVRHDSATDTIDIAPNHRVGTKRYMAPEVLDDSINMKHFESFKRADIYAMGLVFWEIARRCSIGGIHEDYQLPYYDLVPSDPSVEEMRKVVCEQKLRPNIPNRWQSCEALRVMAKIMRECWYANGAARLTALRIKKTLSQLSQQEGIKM

Experiment [1] has as its system TGFb/SMAD Signaling Pathway SBE reporter cell line. Kind of experiment: TGFb reporter assay (TGFb/SMAD Signaling Pathway SBE luciferase reporter cell line). The following applies: read-out: EC50 (TGFb reporter activity); 5-6 h preincubation, then TGFb, 18 h, luciferase luminescence. Here is the method:
TGFβ/SMAD Signaling Pathway SBE reporter cell line was obtained from BPS Bioscience. Cells were passed, expanded, and stored in liquid nitrogen as per the supplier's instructions with the exception that growth media is changed to DMEM-C with Geneticin (DMEM supplemented with 10% fetal bovine serum, 1×NEAA, 1 mM Pyruvate, 2 mM glutamine, 50 μg/mL penicillin, 50 U/mL streptomycin and 400 μg/mL of Geneticin). The assay media was MEM supplemented with 0.5% fetal bovine serum, 1×NEAA, 1 mM Pyruvate, 50 μg/mL penicillin and 50 U/mL streptomycin.
TGFb/SMAD Signaling Pathway SBE reporter cell line was obtained from BPS Bioscience. […]
Reporter cells were harvested from the tissue culture flasks by incubation in small quantity of Versene at room temperature for three to five minutes after the media in the flask was removed and cells rinsed with PBS. Cells were counted and diluted in the assay media at 0.8×10^6 cells/mL then 50 uL/well were added to 96-well assay plate. […] Luciferase substrate solution was subsequently added at 75 uL per well, incubated in dark with shaking at room temperature for 10 min, and luminescence was measured using a luminometer.

The next experiment addresses ALK5 (Homo sapiens, UniProt P36897). Kind of experiment: ALK5 enzyme inhibition assay (Reaction Biology Corp, 33P-ATP filter-binding, casein substrate). The settings on record: read-out: IC50 (inhibition of ALK5), 10 uM ATP, 2 hours at room temperature. As for the experimental part:
ALK5 enzyme inhibition assays were performed by Reaction Biology Corp (Malvern, Pa.). 1 mg/mL of peptide substrate (casein) and 10 uM ATP were prepared in a mixture of fresh reaction buffer. The kinase was delivered into the substrate solution which was gently mixed. Compounds in 100% DMSO were added to the kinase reaction mixture by Acoustic technology (Echo550; nanoliter range) and the mixture was incubated for 20 min at room temperature. ^33P-ATP (Specific activity 10 uCi/uL) was added into the reaction mixture to initiate the reaction and the reaction mixture was incubated for 2 hours at room temperature. Radioactivity was detected by filter-binding method and kinase activity data were expressed as the percent remaining kinase activity in test samples compared to vehicle (dimethyl sulfoxide) reactions. IC50 values and curve fits were obtained using Prism (GraphPad Software).

In the case of `Cc1cccc(-c2nc(CNCCc3ccc(F)cc3)[nH]c2-c2ccc3ncnn3c2)n1`, in experiment [1], the EC50 was 0.1 to 10 nM. In addition, the IC50 at ALK5 was in the range of 100 to 1000 nM.
